Results as given in US10138261B2, “Ferrocenyl compounds” (The University of Birmingham, priority 2013, dated 2018).

Key:
Hela cells = test: minimum cytotoxic concentration in antiviral assay host cells (Table 2)
[1] = tested on: murine leukemia cells (L1210); test: proliferation activity assay, L1210 cells; conditions: L1210, Hela and CEM cell lines

Substance	Minimum cytotoxic concentration (required to cause a microscopically detectable alteration of normal cell morphology) (Hela cells)	cytotoxicity in these cell lines (in words) [1]
(S,Rp)-1-[α-Methyl-(3-(hydroxy)propyl)]-2-[(thyminyl)ethyl]-ferrocene [Compound 1]	244 μM	
1-(Thyminyl-)ethyl-ferrocene [Compound 4]		poor cytotoxicity
